For the assay, the target named is M. smegmatis DprE1 WT (Mycolicibacterium smegmatis, UniProt A0R607). The assay can be described thus: biochemical.
The mark [1] stands for this setting: M. smegmatis DprE1, Table 1, read-out: IC50 DprE1 WT.

The chains behind the UniProt entries cited, without tags or fusion partners. Where a name states a change or a piece, a line headed by the entry shows the natural chain unless it says otherwise.
UniProt A0R607: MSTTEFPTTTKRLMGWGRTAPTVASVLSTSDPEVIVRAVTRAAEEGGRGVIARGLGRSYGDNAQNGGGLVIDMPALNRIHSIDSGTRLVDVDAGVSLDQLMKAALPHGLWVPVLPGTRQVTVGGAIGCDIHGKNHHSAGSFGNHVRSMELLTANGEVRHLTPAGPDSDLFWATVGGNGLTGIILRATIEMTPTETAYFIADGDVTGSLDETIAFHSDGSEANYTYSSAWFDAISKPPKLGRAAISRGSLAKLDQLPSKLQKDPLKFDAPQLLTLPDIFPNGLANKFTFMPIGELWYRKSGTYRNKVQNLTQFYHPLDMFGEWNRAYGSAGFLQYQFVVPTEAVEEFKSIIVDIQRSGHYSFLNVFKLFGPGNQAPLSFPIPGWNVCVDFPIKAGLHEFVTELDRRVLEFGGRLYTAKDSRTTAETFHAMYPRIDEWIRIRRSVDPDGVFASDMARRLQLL

Like-named read-outs stand apart in the source and are kept apart here.

On to `CCOC(=O)NC(=O)c1ccsc1NC(=O)c1nc2ccccc2s1` [TCA1], for which the IC50 (as a rule, the concentration at which inhibition is half-maximal) under setting [1] was 48 ± 14 nM. Further, the Ki (in general, the dissociation constant of the complex between target and ligand, obtained from inhibition or displacement) (steady-state kinetics, Table S2) amounted to 150 nM.
Consider `CCOC(=O)NC(=O)c1ccsc1NC(=O)c1nc2cnccc2s1` [TCA007], for which the “improvement of IC50 compared to TCA1” value (DprE1 IC50 relative to TCA1) worked out at 8 fold. The IC50 was determined as 100 nM (Figure 4D, read-out: DprE1 IC50); 5.3 nM under setting [1]; 5 ± 2 nM (read-out: IC50 (DprE1)).

The record behind these values is PMC5659129, “Determinants of the Inhibition of DprE1 and CYP2C9 by Antitubercular Thiophenes” (Angewandte Chemie (International Ed. in English), 2017).
